Laboratory results published in US12570642B2, “GLP-IR modulating compounds” (Gilead Sciences, Inc., priority 2021, dated 2026).
This is a selection: effects in other tests are not listed, and their absence says nothing.

Chains of the proteins cited; added tags and fusions are not shown. Residues count along the entry.
UniProt P43220, 24-463 limits assumed: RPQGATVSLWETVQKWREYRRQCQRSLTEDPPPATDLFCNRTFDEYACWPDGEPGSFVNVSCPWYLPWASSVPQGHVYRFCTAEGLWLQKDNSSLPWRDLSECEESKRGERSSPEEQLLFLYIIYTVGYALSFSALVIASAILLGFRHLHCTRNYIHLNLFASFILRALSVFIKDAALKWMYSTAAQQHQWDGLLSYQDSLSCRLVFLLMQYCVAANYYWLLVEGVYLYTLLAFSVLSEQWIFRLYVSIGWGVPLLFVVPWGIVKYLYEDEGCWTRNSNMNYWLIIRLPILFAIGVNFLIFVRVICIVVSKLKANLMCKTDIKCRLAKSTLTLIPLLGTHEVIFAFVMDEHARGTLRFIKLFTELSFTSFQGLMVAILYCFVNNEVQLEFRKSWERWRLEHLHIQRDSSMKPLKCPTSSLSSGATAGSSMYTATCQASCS

Molecular target: GLP-1R (Homo sapiens, UniProt P43220)
Test: GLP-1R Activation - cAMP Assay
Conditions: read-out: GLP-1R Activation - Assay EC50; cAMP increase in CHO cells stably expressing GLP-1R; each compound run on one of the two cAMP assays (Assay 1 or Assay 2, not specified)
Procedure: GLP-1R Activation—cAMP Assay 1
GLP-1R activation by compounds of the present disclosure were quantified by measuring cAMP increase in CHO cells stably expressing GLP-1R (MultiSpan product #C1267-1a). The cells were harvested and plated in growth medium (DMEM/F-12 (Corning product #10-090-CV) supplemented with 10% FBS (HyClone product #SH30071-03), penicillin/streptomycin (Corning product #30-002CI) and 10 μg/ml puromycin (Gibco product #A11138-03)) at 1,000 cells/well in a 384-well plate (Greiner product #781080). The cells were then incubated overnight at 37° C., 5% CO2. The next day, the medium was removed and the cells were washed with DPBS (Corning product #21-031-CM) before adding the assay medium (HBSS, Corning product #21-023-CV) with 20 mM Hepes (Gibco product #15630-080) and 0.1% BSA (Rockland Immunochemicals product #BSA-1000)). Following the medium change, the cells were incubated for 1 hour at 37° C., 5% CO2. The tested GLP-1 compound was added to the cells in a 10-point dose response followed by a 30 minutes incubation at 37° C., 5% CO2. cAMP concentration increase was then detected using Cisbio's cAMP Gs Dynamic Kit (product #62AM4PEC) according to the manufacturer's protocol. The response was plotted against the log of the agonist concentration and fitted to a sigmoidal equation to determine the EC50.

SMILES: N#Cc1ccc(COc2cccc(-c3cc(F)c(Cc4nc5ccc(C(=O)O)cc5n4CC4(N)CCOC4)cc3F)n2)c(F)c1 (stereo not shown)
- EC50: 0.717 nM
